Measured values reported in patent US20250367314A1, “LINKER-PAYLOAD, AN ANTIBODY-DRUG CONJUGATE MADE THEREBY AND USES THEREOF” (TAIRX, INC., priority 2024, published 2025).

How the values were obtained:
[1] = system: BT-474 human breast cancer xenograft; assay: BT-474 human breast cancer xenograft model in BALB/c nude mice (linker comparison); format: in vivo
[2] = system: MDA-MB-468 human breast cancer xenograft; assay: MDA-MB-468 human breast cancer xenograft model in BALB/c nude mice; conditions: for death or clinical signs: during the study; for % TGI: 5 mg/kg IV, QW for 2 weeks
[3] = system: BT-474 human breast cancer xenograft; assay: BT-474 human breast cancer xenograft model in NOD-SCID mice (dose range study of CVM-ADC01); format: in vivo; conditions: for % TGI: 5 mg/kg IV, QW for 3 weeks

| Substance | death or clinical signs ([2]; 5 mg/kg) | % TGI ([2]; D4) [%] | % TGI ([2]; D7) [%] | % TGI ([2]; D11) | % TGI ([2]; D14) | % TGI ([2]; D18) | % TGI ([2]; D21) | % TGI ([2]; D25) | % TGI ([2]; D27) [%] | other results |
| --- | --- | --- | --- | --- | --- | --- | --- | --- | --- | --- |
| CVM-ADC01: Trastuzumab (Her2 Ab) conjugated with Compound 15 (DBCO-PEG6-va-PAB-DMEA-CVM-1125), DAR 3.6 | – | – | – | – | – | – | – | – | – | body weight (BW) loss ([1]; 5 mg/kg IV, QW for 3 weeks, FIG. 1A): no significant BW loss; unscheduled animal death or clinical signs ([1]; 5 mg/kg IV, QW for 3 weeks, during the study): No unscheduled animal death or clinical signs; anti-tumor efficacy compared to vehicle group (significance) ([1]; 5 mg/kg, Day 14 to Day 27): significant anti-tumor efficacy; anti-tumor efficacy (in words) ([1]; 5 mg/kg, Table 11 and FIG. 1B): can provide an anti-tumor efficacy; % TGI ([1]; D4, 5 mg/kg IV, QW for 3 weeks): 7.7%; % TGI ([1]; D7, 5 mg/kg IV, QW for 3 weeks): 22.1%; % TGI ([1]; D11, 5 mg/kg IV, QW for 3 weeks): 31.8%; % TGI ([1]; D14, 5 mg/kg IV, QW for 3 weeks): 45.2* %; % TGI ([1]; D25, 5 mg/kg IV, QW for 3 weeks): 69.2** %; % TGI ([1]; D27, 5 mg/kg IV, QW for 3 weeks): 71.1** % |
| CVM-ADC10: Cetuximab (EGFR Ab) conjugated with Compound 15 (DBCO-PEG6-va-PAB-DMEA-CVM-1125), DAR 3.41 | no death or clinical signs | 2.64 | 6.28 | 14.23* % | 35.61** % | 45.96** % | 52.92** % | 56.68** % | 58.75 | anti-tumor efficacy compared to Cetuximab group (significance) ([2]; 5 mg/kg, Day 14 (P<0.01) to Day 21 (P=0.014)): significant anti-tumor efficacy |
| Cetuximab [reference compound] | no death or clinical signs | −2.15 | 3.32 | 4.34% | 6.64% | 7.50% | 18.77% | 26.87% | 33.01 | – |
| Herceptin: HER2-specific humanized antibody, reference drug [reference compound] | – | – | – | – | – | – | – | – | – | antitumor efficacy compared to Vehicle control (significance) ([3]; 5 mg/kg, Day 28): not statistically significant; % TGI ([3]; D 3): 8.7%; % TGI ([3]; D 5): 13.6%; % TGI ([3]; D7): 13.8%; % TGI ([3]; D11): 28.5%; % TGI ([3]; D14): 39.6%; % TGI ([3]; D 19): 65.1% |

Marks after values point to notes of the source that are not given here.
